Source: PubChem BioAssay AID624040 (The Scripps Research Institute Molecular Screening Center, 2012)
The list shows a part of the results, in another mix than the full data. Calls of active or inactive are those of the source.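 Rule for the calls: active = inhibition above a per-plate cutoff, the mean of that plate's test compounds plus 3 SD (cut at about 27% in these data); inactive = the rest.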

Chains of the proteins cited; added tags and fusions are not shown.
UniProt P08912, whole entry: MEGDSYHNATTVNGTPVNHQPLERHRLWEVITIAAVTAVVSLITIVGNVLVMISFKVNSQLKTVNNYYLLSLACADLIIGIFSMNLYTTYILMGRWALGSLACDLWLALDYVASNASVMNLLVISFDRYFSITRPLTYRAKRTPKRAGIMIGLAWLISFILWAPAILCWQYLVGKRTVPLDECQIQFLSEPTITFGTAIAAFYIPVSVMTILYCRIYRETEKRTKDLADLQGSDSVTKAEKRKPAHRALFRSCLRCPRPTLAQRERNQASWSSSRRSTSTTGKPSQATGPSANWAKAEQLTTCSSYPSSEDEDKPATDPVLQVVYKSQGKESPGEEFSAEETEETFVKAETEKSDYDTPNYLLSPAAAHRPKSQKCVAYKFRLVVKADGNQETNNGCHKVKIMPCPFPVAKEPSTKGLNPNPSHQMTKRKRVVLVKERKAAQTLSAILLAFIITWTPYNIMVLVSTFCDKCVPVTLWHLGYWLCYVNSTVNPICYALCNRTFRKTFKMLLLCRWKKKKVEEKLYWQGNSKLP

These molecules were tested against Muscarinic acetylcholine receptor M5 (Homo sapiens) (UniProt P08912) (assay: human M5 muscarinic receptor antagonists, primary screen, CHO cells, Fluo-8 calcium fluorescence (AID 624040;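 note: 0% = acetylcholine EC80 with DMSO and 100% = DMSO without agonist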)). Settings: CHO-hM5 cells, ACh EC80, at 3 µM, active compounds read high.

SMILES	inhibition
CCCCn1nnnc1C(c1ccccc1OC(F)(F)F)N1CCC(n2c(=O)[nH]c3ccccc32)CC1 (stereo not given)	inactive: -3.26%
CC(C)c1ccc(NC2CCN(C(=O)OC(C)(C)C)CC2)cc1	inactive: 2.18%
CN(C)c1cccc(C(=O)NCC2(N3CCCCC3)CCCCC2)c1	inactive: 4.74%
COc1ccc(CN(CCCl)CCCl)cc1Cl	inactive: -13.2%
O=C(NCC1(N2CCOCC2)CCCCC1)c1cc(F)c(F)cc1Cl	inactive: 3.52%
CCC(c1nnnn1C(C)(C)C)N1CCC(n2c(=O)[nH]c3ccccc32)CC1 (stereo not given)	inactive: 1.32%
COc1cc(OC)c(C(=O)NCC2(N(C)C)CCCCC2)cc1OC	inactive: 6.04%
CCCCn1nnnc1C(c1ccnc2ccccc12)N1CCC(n2c(=O)[nH]c3ccccc32)CC1 (stereo not given)	inactive: 12.1%
CN1CCC(Nc2cccc(F)c2)CC1	inactive: -2.54%
O=C(NCC1(N2CCCCC2)CCCCC1)c1cncc(Br)c1	inactive: 8.87%
COc1ccc(C(c2nnnn2C2CCCC2)N2CCC(n3c(=O)[nH]c4ccccc43)CC2)cc1 (stereo not given)	inactive: -0.51%
CCCOc1ccc(C(=O)NCC2(N(C)C)CCCCC2)cc1OC	inactive: 2.74%
Cc1ccc(C(=O)NCC2(N(C)C)CCCCC2)o1	inactive: -4.06%
O=C(NCC1(N2CCCCC2)CCCCC1)c1ccc(OC(F)F)cc1	inactive: 12.3%
CC(C)(C)n1nnnc1C(c1ccccc1OC(F)(F)F)N1CCC(n2c(=O)[nH]c3ccccc32)CC1 (stereo not given)	inactive: 12.4%
O=c1[nH]c2ccccc2n1C1CCN(C(c2ccccc2OC(F)(F)F)c2nnnn2C2CCCC2)CC1 (stereo not given)	inactive: -5.72%
N#CC1(Nc2ccccc2)CCN(CCc2ccccc2)CC1	inactive: -2.9%
CCN1CCC(Nc2ccc(Cl)cc2)CC1	inactive: 9.13%
O=C(NCC1(N2CCCCC2)CCCCC1)c1cccc([N+](=O)[O-])c1	inactive: 6.45%
CSc1ccc(C(=O)NCC2(N3CCOCC3)CCCCC2)cc1	inactive: -6.03%
O=C(NCC1(N2CCCCC2)CCCCC1)c1cccc(C(F)(F)F)c1	inactive: 8.38%
COc1cc(C(=O)NCC2(N3CCCCC3)CCCCC2)ccc1OC(F)F	inactive: 7.07%
O=C(NCC1(N2CCOCC2)CCCCC1)c1cc(=O)[nH]c2ccccc12	inactive: -5.17%
CN1CCN(CCOC(=O)C(O)(c2ccccc2)c2ccccc2)CC1	inactive: 20.2%
COc1ccc(NC2CCN(C(=O)OC(C)(C)C)CC2)cc1	inactive: 4.96%
CC(C)c1ccc(C(=O)NCC2(N3CCOCC3)CCCCC2)cc1	inactive: 3.47%
CCCCn1nnnc1C(c1cccc2ccccc12)N1CCC(n2c(=O)[nH]c3ccccc32)CC1 (stereo not given)	inactive: 5.27%

SMILES	inhibition
O=C1CCN(Cc2ccccc2)CC1	inactive: 3.63%
CC(C)(C)n1nnnc1C(c1ccccc1)N1CCC(n2c(=O)[nH]c3ccccc32)CC1 (stereo not given)	inactive: 5.33%
CCOc1ccc(C)cc1CN(CCCl)CCCl	inactive: 12.5%
COc1ccc(NC2CCN(CCc3ccccc3)CC2)c(OC)c1	inactive: 1.06%
CCOC(=O)N1CCC(Nc2ccc(F)cc2)CC1	inactive: 10.2%
CCCCn1nnnc1C(c1cc2ccccc2o1)N1CCC(n2c(=O)[nH]c3ccccc32)CC1 (stereo not given)	inactive: 4.84%
O=P1(N(CCCl)CCCl)SCCCS1	inactive: 2.1%
CCCCOc1ccc(C(=O)NCC2(N3CCOCC3)CCCCC2)cc1	inactive: -3.14%
O=C(NCC1(N2CCCCC2)CCCCC1)c1ccc(F)cc1	inactive: 12.6%
O=c1[nH]c2ccccc2n1C1CCN(C(c2ccccc2)c2nnnn2C2CCCCC2)CC1 (stereo not given)	inactive: 7.82%
CCOC(=O)N1CCC(Nc2cccc(C)c2)CC1	inactive: 25.3%
COc1cc(C(=O)NCC2(N(C)C)CCCCC2)ccc1OC(F)F	inactive: 10.8%
O=c1[nH]c2ccccc2n1C1CCN(C(c2cccc3ccccc23)c2nnnn2C2CCCC2)CC1 (stereo not given)	inactive: -12.9%
COc1ccc(C(=O)NCC2(N3CCCCC3)CCCCC2)c(OC)c1OC	inactive: 0.21%
CC(C)(C)OC(=O)N1CCC(N(C(=O)c2ccccc2)c2ccc(F)cc2)CC1	inactive: 2.37%
CCC(c1nnnn1C1CCCC1)N1CCC(n2c(=O)[nH]c3ccccc32)CC1 (stereo not given)	inactive: 5.07%
COc1ccc(C(=O)NCC2(N3CCCCC3)CCCCC2)cc1	inactive: 3.16%
CCCCn1nnnc1C(CC)N1CCC(n2c(=O)[nH]c3ccccc32)CC1 (stereo not given)	inactive: 19.8%
O=C(NCC1(N2CCCCC2)CCCCC1)c1cccs1	inactive: 11.5%
CCCCn1nnnc1C(c1cccs1)N1CCC(n2c(=O)[nH]c3ccccc32)CC1 (stereo not given)	inactive: 16.6%
O=C(NCC1(N2CCCCC2)CCCCC1)c1ccc(=O)[nH]c1	inactive: -0.06%
Cc1cccc(NC2(C#N)CCN(Cc3ccccc3)CC2)c1	inactive: 10.6%
CSc1ccccc1C(=O)NCC1(N2CCCCC2)CCCCC1	inactive: 1.39%
Cc1cc(C)cc(N(C(=O)c2ccccc2)C2CCN(C(=O)OC(C)(C)C)CC2)c1	inactive: 5.75%
O=C(NCC1(N2CCCCC2)CCCCC1)c1ccc(Cl)nc1	inactive: 3.87%
O=c1[nH]c2ccccc2n1C1CCN(C(c2ccccc2OC(F)(F)F)c2nnnn2C2CCCCC2)CC1 (stereo not given)	inactive: 3.5%
O=C(NCC1(N2CCOCC2)CCCCC1)c1cc2ccccc2o1	inactive: -3.71%

SMILES	inhibition
COc1ccc(Cl)cc1C(=O)NCC1(N2CCOCC2)CCCCC1	inactive: -3.62%
O=C(NCC1(N2CCCCC2)CCCCC1)c1ccc(Cl)s1	inactive: 7.51%
N#CC1(Nc2ccccc2)CCN(Cc2ccccc2)CC1	inactive: 5.53%
O=c1[nH]c2ccccc2n1C1CCN(C(c2cc3ccccc3o2)c2nnnn2C2CCCCC2)CC1 (stereo not given)	inactive: 10.5%
CCCCn1nnnc1C(c1ccc(OC)cc1)N1CCC(n2c(=O)[nH]c3ccccc32)CC1 (stereo not given)	inactive: 19.4%
CCOC(=O)N1CCC(Nc2ccc(OC)cc2)CC1	inactive: 4.74%
CN1CCC(Nc2ccc(F)c(Cl)c2)CC1	inactive: 17.1%
CCOc1ncccc1C(=O)NCC1(N2CCOCC2)CCCCC1	inactive: 1.12%
O=C(O)C1(Nc2ccccc2)CCN(Cc2ccccc2)CC1	inactive: 5.96%
NN(c1ccccc1)C1CCN(CCc2ccccc2)CC1	inactive: 5.22%
CC(C)(C)OC(=O)N1CCC(Nc2ccccc2)CC1	inactive: 14%
O=c1[nH]c2ccccc2n1C1CCN(C(c2cc3ccccc3o2)c2nnnn2C2CCCC2)CC1 (stereo not given)	inactive: 9.04%
CCCOc1ccc(C(=O)NCC2(N(C)C)CCCCC2)cc1	inactive: 9.38%
COc1cc(OC)cc(C(=O)NCC2(N3CCOCC3)CCCCC2)c1	inactive: 4.37%
COc1cccc(C(c2nnnn2C2CCCC2)N2CCC(n3c(=O)[nH]c4ccccc43)CC2)c1OC (stereo not given)	inactive: 16.1%
COc1cccc(C(=O)N(c2cc(C)cc(C)c2)C2CCN(C(=O)OC(C)(C)C)CC2)c1	inactive: 4.82%
CN1CCC(Nc2ccc(Cl)cc2)CC1	inactive: 5.88%
CCC(c1nnnn1C1CCCCC1)N1CCC(n2c(=O)[nH]c3ccccc32)CC1 (stereo not given)	inactive: -6.62%
COc1cccc(C(c2nnnn2C2CCCCC2)N2CCC(n3c(=O)[nH]c4ccccc43)CC2)c1OC (stereo not given)	inactive: 11.8%
CC(=O)N(c1ccccc1)C1CCNCC1	inactive: 0.02%
COc1cc(OC)cc(C(=O)NCC2(N3CCCCC3)CCCCC2)c1	inactive: 9.77%
O=c1[nH]c2ccccc2n1C1CCN(C(c2ccnc3ccccc23)c2nnnn2C2CCCCC2)CC1 (stereo not given)	inactive: 13.6%
Fc1ccccc1NC1CCN(Cc2ccccc2)CC1	inactive: -4.64%
Cc1ccc(C(=O)NCC2(N3CCCCC3)CCCCC2)o1	inactive: 0.14%
Cc1ccc(NC2(C#N)CCN(Cc3ccccc3)CC2)cc1	inactive: 11.4%
COc1ccc(C(c2nnnn2C2CCCCC2)N2CCC(n3c(=O)[nH]c4ccccc43)CC2)cc1 (stereo not given)	inactive: -10.4%
CCN1CCC(Nc2cccc(F)c2)CC1	inactive: -9.33%

SMILES	inhibition
CC(C)(C)n1nnnc1C(c1ccnc2ccccc12)N1CCC(n2c(=O)[nH]c3ccccc32)CC1 (stereo not given)	inactive: 4.79%
Cc1ccccc1NC1(C#N)CCN(Cc2ccccc2)CC1	inactive: 6.37%
CN(C)c1ccc(C(=O)NCC2(N3CCCCC3)CCCCC2)cc1	inactive: 10.6%
Cn1c(=O)[nH]cc(N(CCCl)CCCl)c1=O	inactive: 10.3%
O=C(NCC1(N2CCCCC2)CCCCC1)c1ccco1	inactive: 4.57%
N#Cc1ccc(C(=O)NCC2(N3CCCCC3)CCCCC2)cc1	inactive: -0.14%
CC(C)(C)OC(=O)N1CCC(N(C(=O)c2ccccc2)c2ccc(Cl)cc2)CC1	inactive: 2.43%
CN(C)C1(CNC(=O)c2cccc(C#N)c2)CCCCC1	inactive: -1.35%
O=c1[nH]c2ccccc2n1C1CCN(C(c2ccccc2)c2nnnn2C2CCCC2)CC1 (stereo not given)	inactive: 13.7%
CCCN1CCC(Nc2cc(OC)cc(OC)c2)CC1	inactive: -3.9%
Cc1cc(N(CCCl)CCCl)ccc1C=O	inactive: 9.84%
c1ccc(CN2CCC(Nc3ccccc3)CC2)cc1	inactive: -0.39%
CC(C)(C)n1nnnc1C(c1cccc2ccccc12)N1CCC(n2c(=O)[nH]c3ccccc32)CC1 (stereo not given)	inactive: 8.23%
COc1cc(C(=O)NCC2(N3CCOCC3)CCCCC2)cc(OC)c1C	inactive: 3.41%
CCCCn1nnnc1C(c1ccccc1)N1CCC(n2c(=O)[nH]c3ccccc32)CC1 (stereo not given)	inactive: 7.79%
O=C(NCC1(N2CCOCC2)CCCCC1)c1cc(Br)ccc1Cl	inactive: -1.34%
O=c1[nH]c2ccccc2n1C1CCN(C(c2cccs2)c2nnnn2C2CCCCC2)CC1 (stereo not given)	inactive: 0.73%
O=c1[nH]c2ccccc2n1C1CCN(C(c2ccnc3ccccc23)c2nnnn2C2CCCC2)CC1 (stereo not given)	inactive: 10.8%
COc1ccc(C(=O)NCC2(N3CCOCC3)CCCCC2)cc1OC	inactive: 1.34%
CCOC(=O)N1CCC(Nc2ccc(C)cc2)CC1	inactive: -8.68%
COc1cccc(C(c2nnnn2C(C)(C)C)N2CCC(n3c(=O)[nH]c4ccccc43)CC2)c1OC (stereo not given)	inactive: 9.08%
N/C(=N\O)c1c(N)no[n+]1[O-]	inactive: -0.23%
O=c1[nH]c2ccccc2n1C1CCN(C(c2cccs2)c2nnnn2C2CCCC2)CC1 (stereo not given)	inactive: 6.17%
CCCCn1nnnc1C(c1cccc(OC)c1OC)N1CCC(n2c(=O)[nH]c3ccccc32)CC1 (stereo not given)	inactive: 11.9%
